1 compound from patent publication US20210057047A1, “IN-SILICO METHOD FOR DESIGNING A (D)-POLYPEPTIDE LIGAND” (THE GOVERNING COUNCIL OF THE UNIVERSITY OF TORONTO, priority 2018, published 2021) can be followed below.

By UniProt entry, the sequences of proteins in these tests, tags left out. Residues count along the entry.
UniProt P06873, 106-384: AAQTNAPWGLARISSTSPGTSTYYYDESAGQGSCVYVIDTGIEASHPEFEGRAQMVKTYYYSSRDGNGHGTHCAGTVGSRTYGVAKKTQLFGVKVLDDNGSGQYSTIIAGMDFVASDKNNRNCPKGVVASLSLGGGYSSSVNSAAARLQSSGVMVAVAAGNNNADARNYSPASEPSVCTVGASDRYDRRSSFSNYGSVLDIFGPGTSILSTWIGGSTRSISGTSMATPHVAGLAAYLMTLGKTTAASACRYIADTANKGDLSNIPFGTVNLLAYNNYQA

For the data set, the target named is T1, Proteinase K (ProtK) (Parengyodontium album, UniProt P06873).
T1 construct: purchased Bioshop
It is filed as in vitro ADME. The protocol: Stocks of 20 μM peptide in 200 μL total volume (10 mM Tris-base, 10 mM NaCl, pH 7.4) were supplemented with 5 μM CaCl2) and 30 uL removed for the untreated T0 sample. Proteinase K (ProtK, Bioshop) was then added to a final concentration of 100 μg/mL. Samples were incubated at 37° C. and 30 μL removed after each time point and protease activity blocked by the addition of 10 mM PMSF (200 mM stock dissolved in isopropanol). Protease inactivated samples were frozen at −20° C. until further use. Digestions were repeated three times. Frozen samples were supplemented with 8 μL sample loading buffer (4× NuPAGE, ThermoFisher Scientific), boiled ([…]) for 10 minutes, and centrifuged (12 000 rpm, 10 min) prior to loading the gel (12% NuPAGE Bis-Tris (ThermoFisher Scientific) with MES running buffer). Gels were run at 200 V for […] and stained using Coomassie Brilliant Blue dye. Densitometry of bands was determined using ImageJ software (40) with back ground subtraction. All samples were normalized to their respective untreated sample (T0).

Bounds are passed on as bounds.

`CC[C@H](C)[C@H](NC(=O)[C@H](Cc1ccccc1)NC(=O)[C@H](CCC(=O)O)NC(=O)[C@H](CCCCN)NC(=O)[C@H](C)NC(=O)[C@H](C)NC(=O)[C@H](CCC(N)=O)NC(=O)CNC(=O)[C@H](CCC(=O)O)NC(=O)[C@H](CC(C)C)NC(=O)[C@H](Cc1ccc(O)cc1)NC(=O)[C@H](CO)NC(=O)[C@H](CO)NC(=O)[C@@H](NC(=O)[C@H](CC(=O)O)NC(=O)[C@H](CO)NC(=O)[C@@H](NC(=O)[C@H](Cc1ccccc1)NC(=O)[C@@H](NC(=O)CNC(=O)[C@H](CCC(=O)O)NC(=O)[C@H](C)NC(=O)[C@@H](N)Cc1cnc[nH]1)[C@@H](C)O)[C@@H](C)O)C(C)C)C(=O)N[C@@H](C)C(=O)N[C@@H](Cc1c[nH]c2ccccc12)C(=O)N[C@@H](CC(C)C)C(=O)N[C@H](C(=O)N[C@@H](CCCCN)C(=O)NCC(=O)N[C@@H](CCCNC(=N)N)C(=O)O)C(C)C` [(L)-GLP1]: under “exposure to ProtK, 37° C.”, the “time to total loss of peptide” value is less than 1 h. Moreover, the “degradation by ProtK (in words)” value (treatment with ProtK over 5 hours) is recorded as “rapid degradation”.
